# Only a part is listed here, and it is no random draw. Activity calls are given as the source filed them.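 The calls were made as follows: active = fall in fluorescence gain of 50% or more versus controls, with final raw signal at or below 3038400; inconclusive = same 50% fall but final raw signal above 3038400; inactive = fall in fluorescence gain under 50%.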
# The chains behind the UniProt entries cited, without tags or fusion partners.
# UniProt Q03530, whole entry: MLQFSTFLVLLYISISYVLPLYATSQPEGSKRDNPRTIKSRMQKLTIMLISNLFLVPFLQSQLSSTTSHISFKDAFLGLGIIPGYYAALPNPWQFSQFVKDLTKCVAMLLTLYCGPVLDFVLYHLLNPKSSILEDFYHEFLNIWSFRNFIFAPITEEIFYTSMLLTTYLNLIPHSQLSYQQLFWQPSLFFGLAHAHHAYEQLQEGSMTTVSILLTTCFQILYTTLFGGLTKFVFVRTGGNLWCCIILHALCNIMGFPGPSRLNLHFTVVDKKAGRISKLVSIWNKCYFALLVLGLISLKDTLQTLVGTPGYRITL
# Biological target: CAAX prenyl protease 2 (Saccharomyces cerevisiae (strain ATCC 204508 / S288c)) (UniProt Q03530)
# Assay: blockers of Rce1 CaaX peptide cleavage – biochemical, fluorescence, cell-free homogeneous, primary screen (AID 2563)
# Settings: yeast membranes, quenched prenylated peptide cleavage fluorescence
row,Compound,outcome
1,O=C(NCC1(N2CCCCC2)CCCCC1)c1cccc([N+](=O)[O-])c1,inactive
2,N#CC1(Nc2ccccc2)CCN(CCc2ccccc2)CC1,inactive
3,CCN1CCC(Nc2ccc(Cl)cc2)CC1,inactive
4,O=C(NCC1(N2CCCCC2)CCCCC1)c1ccc(OC(F)F)cc1,inactive
5,CN1CCN(CCOC(=O)C(O)(c2ccccc2)c2ccccc2)CC1,inactive
6,COc1ccc(NC2CCN(C(=O)OC(C)(C)C)CC2)cc1,inactive
7,COc1cc(C(=O)NCC2(N3CCCCC3)CCCCC2)ccc1OC(F)F,inactive
8,O=C(NCC1(N2CCOCC2)CCCCC1)c1cc(=O)[nH]c2ccccc12,inactive
9,O=C(NCC1(N2CCCCC2)CCCCC1)c1cccc(C(F)(F)F)c1,inactive
10,COc1cc(OC)c(C(=O)NCC2(N(C)C)CCCCC2)cc1OC,inactive
11,CN(C)c1cccc(C(=O)NCC2(N3CCCCC3)CCCCC2)c1,inactive
12,COc1ccc(CN(CCCl)CCCl)cc1Cl,inactive
13,CC(C)c1ccc(NC2CCN(C(=O)OC(C)(C)C)CC2)cc1,inactive
14,CCCOc1ccc(C(=O)NCC2(N(C)C)CCCCC2)cc1OC,inactive
15,CN1CCC(Nc2cccc(F)c2)CC1,active
16,O=C(NCC1(N2CCCCC2)CCCCC1)c1cccs1,inactive
17,O=C(NCC1(N2CCCCC2)CCCCC1)c1ccc(=O)[nH]c1,inactive
18,CC(C)(C)OC(=O)N1CCC(N(C(=O)c2ccccc2)c2ccc(F)cc2)CC1,inactive
19,COc1ccc(C(=O)NCC2(N3CCCCC3)CCCCC2)c(OC)c1OC,inactive

row,Compound,outcome
1,COc1ccc(C(=O)NCC2(N3CCCCC3)CCCCC2)cc1,inactive
2,CCOC(=O)N1CCC(Nc2ccc(OC)cc2)CC1,inactive
3,N#CC1(Nc2ccccc2)CCN(Cc2ccccc2)CC1,inactive
4,O=C(OC1CN2CCC1CC2)C1c2ccccc2Oc2ccccc21 (configuration not stated),inactive
5,O=C(NCC1(N2CCOCC2)CCCCC1)c1cc2ccccc2o1,inactive
6,Cc1cc(C)cc(N(C(=O)c2ccccc2)C2CCN(C(=O)OC(C)(C)C)CC2)c1,inactive
7,O=C(NCC1(N2CCCCC2)CCCCC1)c1ccc(Cl)nc1,inactive
8,COc1ccc(NC2CCN(CCc3ccccc3)CC2)c(OC)c1,inactive
9,CCOC(=O)N1CCC(Nc2ccc(F)cc2)CC1,inactive
10,O=C(NCC1(N2CCCCC2)CCCCC1)c1ccc(F)cc1,inactive
11,CCOc1ccc(C)cc1CN(CCCl)CCCl,inactive
12,Cc1ccc(OCC(C)C)c(CN(CCCl)CCCl)c1,inactive
13,CCOC(=O)N1CCC(Nc2cccc(C)c2)CC1,inactive
14,COc1cc(C(=O)NCC2(N(C)C)CCCCC2)ccc1OC(F)F,inactive
15,Fc1ccccc1NC1CCN(Cc2ccccc2)CC1,inactive
16,Cc1ccc(C(=O)NCC2(N3CCCCC3)CCCCC2)o1,inactive
17,COc1cc(OC)cc(C(=O)NCC2(N3CCCCC3)CCCCC2)c1,inactive
18,CN(C)c1ccc(C(=O)NCC2(N3CCCCC3)CCCCC2)cc1,inactive
19,CCN1CCC(Nc2cccc(F)c2)CC1,inactive

row,Compound,outcome
1,CCCOc1ccc(C(=O)NCC2(N(C)C)CCCCC2)cc1,inactive
2,O=C(O)C1(Nc2ccccc2)CCN(Cc2ccccc2)CC1,inactive
3,CC(C)(C)OC(=O)N1CCC(Nc2ccccc2)CC1,inactive
4,CN1CCC(Nc2ccc(F)c(Cl)c2)CC1,inactive
5,CCCOc1ccc(C)cc1CN(CCCl)CCCl,inactive
6,CN1CCC(Nc2ccc(Cl)cc2)CC1,inactive
7,CCC(CO)(C(=O)OC1CN2CCC1CC2)c1ccccc1 (configuration not stated),inactive
8,COc1cc(OC)cc(C(=O)NCC2(N3CCOCC3)CCCCC2)c1,inactive
9,COc1cccc(C(=O)N(c2cc(C)cc(C)c2)C2CCN(C(=O)OC(C)(C)C)CC2)c1,inactive
10,COc1ccc(C(=O)NCC2(N3CCOCC3)CCCCC2)cc1OC,inactive
11,CCc1cc(C(=O)NCC2(N3CCCCC3)CCCCC2)sc1C,inactive
12,O=C(OC1CN2CCC1CC2)C1c2ccccc2C=Cc2ccccc21 (configuration not stated),inactive
13,N/C(=N\O)c1c(N)no[n+]1[O-],inactive
14,CCOC(=O)N1CCC(Nc2ccc(C)cc2)CC1,inactive
15,CC(C)(C)OC(=O)N1CCC(N(C(=O)c2ccccc2)c2ccc(Cl)cc2)CC1,inactive
16,N#Cc1ccc(C(=O)NCC2(N3CCCCC3)CCCCC2)cc1,inactive
17,CCCN1CCC(Nc2cc(OC)cc(OC)c2)CC1,inactive
18,c1ccc(CN2CCC(Nc3ccccc3)CC2)cc1,inactive
19,CN(C)C1(CNC(=O)c2cccc(C#N)c2)CCCCC1,inactive

# From PubChem BioAssay AID2563 (Broad Institute, 2010)
